This note sets out measurements from patent US20210246189A1.

This experiment deals with transgenic TCR specific for A*02:01/pp65495-503, on transduced PBMCs. Kind of experiment: cell-based or functional assay.

“A2/pp65495-503 pMHC functionalized with MMAF (toxin armed Tub-tagged Streptamer) (from UniProt P61769 21-119; P06725 495-503) (peptide-MHC)” had an Ag-specific CD8 T cell population after 5d culture with 0.25 ug pMHC of 15.2% and an Ag-specific CD8 T cell population after 5d culture with 0.5 ug pMHC of 4.9%.
